# Assay results published in PubChem BioAssay (NCI).
# This is a selection; strong and weak results do not stand in their true shares. Some results for these compounds are left out of this collection, so the calls shown say nothing about other tests. A structure can be active in one record and inactive in another. The source made the active and inactive calls. Cut-off read from the data, not from the text of the source: active = growth inhibition above about 70%; inactive = the rest.
# Assays:
# [1] = NCI Yeast Anticancer Drug Screen. Data for the rad50 strain (AID 155);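 note: 0% = growth of vehicle-only cultures of the same strain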; conditions: S. cerevisiae rad50 strain growth inhibition, hits give high values
# [2] = NCI Yeast Anticancer Drug Screen. Data for the mec2-1 strain (AID 157); conditions: S. cerevisiae mec2-1 strain, hits give high values
# [3] = NCI Yeast Anticancer Drug Screen. Data for the sgs1 mgt1 strain (AID 161);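 note: 0% = growth of cultures given vehicle only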; conditions: S. cerevisiae sgs1 mgt1 strain, hits give high values
# [4] = NCI Yeast Anticancer Drug Screen. Data for the cln2 rad14 strain (AID 165);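 note: 0% = growth equal to vehicle treated cultures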; conditions: S. cerevisiae cln2 rad14 strain, hits give high values
# [5] = NCI Yeast Anticancer Drug Screen. Data for the bub3 strain (AID 167); conditions: S. cerevisiae bub3 mutant strain, hits give high values
# [6] = NCI Yeast Anticancer Drug Screen. Data for the mlh1 rad18 strain (AID 175); conditions: S. cerevisiae mlh1 rad18 strain growth inhibition, hits give high values
# [7] = NCI Yeast Anticancer Drug Screen. Data for the rad52 strain (AID 147);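 note: 0% = growth of vehicle-treated control cultures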; conditions: S. cerevisiae rad52 mutant growth inhibition, hits give high values
# Summary of the method: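 Here a repair-compromised yeast strain receives each compound; its growth is then quantified and normalised to vehicle-only controls.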
# [8] = NCI Yeast Anticancer Drug Screen. Data for the wt1 strain (AID 149);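 note: 0% = growth of vehicle-treated wt1 cultures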; conditions: S. cerevisiae wt1 strain (SPY 50644) growth inhibition, hits give high values
# Summary of the method: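 wt1 yeast, compound-treated; % growth inhibition vs vehicle control.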
# [9] = NCI Yeast Anticancer Drug Screen. Data for the rad50EPP+ strain (AID 151);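 note: 0% = growth of vehicle-treated control cultures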; conditions: S. cerevisiae rad50 mutant strain, hits give high values
# Summary of the method: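 Read-out is yeast growth inhibition relative to vehicle; cells used were the rad50EPP+ strain.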
# [10] = NCI Yeast Anticancer Drug Screen. Data for the mgt1 strain (AID 153); conditions: S. cerevisiae mgt1 mutant growth inhibition, hits give high values
# Summary of the method: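 Measured: inhibition of mgt1 yeast growth by compound, normalized to vehicle-treated cultures.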
# [11] = NCI Yeast Anticancer Drug Screen. Data for the rad14 strain (AID 159);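 note: 0% = growth of vehicle-treated control cultures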; conditions: S. cerevisiae rad14 strain growth inhibition, hits give high values
# Summary of the method: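 Test compounds were applied to a repair-deficient yeast strain. Its growth was then compared with that of cultures given vehicle alone, and inhibition was expressed relative to those controls.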
# [12] = NCI Yeast Anticancer Drug Screen. Data for the CLN2oe strain (AID 163);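 note: 0% = growth of vehicle-only control cultures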; conditions: S. cerevisiae CLN2oe strain, hits give high values
# Summary of the method: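 Whole-cell yeast growth assay. A strain engineered for altered cell-cycle control received compound, and inhibition relative to vehicle-treated cultures was recorded.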
# [13] = NCI Yeast Anticancer Drug Screen. Data for the wt2 strain (AID 169);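 note: 0% = growth of vehicle-treated yeast cultures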; conditions: S. cerevisiae wt2 strain growth inhibition, hits give high values
# Summary of the method: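 Treated yeast vs. vehicle-treated yeast: growth inhibition determined.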
# [14] = NCI Yeast Anticancer Drug Screen. Data for the mlh1 strain (AID 171);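 note: 0% = growth of vehicle-treated control cultures of the same strain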; conditions: S. cerevisiae mlh1 strain growth inhibition, hits give high values
# Summary of the method: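 A yeast strain with a defined genetic lesion serves as the test organism. Cultures receive compound or vehicle, and growth is measured.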
# [15] = NCI Yeast Anticancer Drug Screen. Data for the sgs1 strain (AID 173);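 note: 0% = growth of vehicle-only control cultures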; conditions: S. cerevisiae sgs1 mutant, hits give high values
# Summary of the method: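 A genetically defined yeast mutant is incubated with the test compound, and its growth is compared to that of the same strain given vehicle.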
# [16] = NCI Yeast Anticancer Drug Screen. Data for the rad18 strain (AID 177); conditions: S. cerevisiae rad18 mutant growth inhibition, hits give high values
# Summary of the method: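 Measured value is growth inhibition of a yeast strain bearing a DNA repair alteration, referenced to vehicle-treated cells.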
# [17] = at 5.0 µM (retest, dose inferred, filed as 0.5)
# [18] = at 50.0 µM (retest, dose inferred, filed as 5.0)
structure (smiles),measurement,setting,value
O=C(OC1CCN2CCCC12)C(O)(c1ccccc1)c1ccccc1 (centres undefined),growth inhibition,[1]; at 50.0 µM,inactive: 4.15%
same,growth inhibition,[2]; at 50.0 µM,inactive: -4.65%
same,growth inhibition,[3]; at 50.0 µM,inactive: -0.55%
same,growth inhibition,[4]; at 50.0 µM,inactive: -4.7%
same,growth inhibition,[5]; at 50.0 µM,inactive: -12.3%
same,growth inhibition,[6]; at 50.0 µM,inactive: -17.9%
CC(Cl)CN(C)CC(C)Cl (centres undefined),growth inhibition,[7]; at 1.2 µM,inactive: 20%
same,growth inhibition,[7]; at 3.7 µM,inactive: 52%
same,growth inhibition,[7]; at 11.0 µM,active: 87%
same,growth inhibition,[7]; at 33.0 µM,active: 94%
same,growth inhibition,[7]; at 100.0 µM,active: 95%
same,growth inhibition,[8]; at 1.2 µM,inactive: -1%
same,growth inhibition,[8]; at 3.7 µM,inactive: 1%
same,growth inhibition,[8]; at 11.0 µM,inactive: 6%
same,growth inhibition,[8]; at 33.0 µM,inactive: 9%
same,growth inhibition,[8]; at 100.0 µM,inactive: 10%
same,growth inhibition,[9]; at 1.2 µM,inactive: 24%
same,growth inhibition,[9]; at 3.7 µM,inactive: 59%
same,growth inhibition,[9]; at 11.0 µM,active: 90%
same,growth inhibition,[9]; at 33.0 µM,active: 95%
same,growth inhibition,[9]; at 100.0 µM,active: 96%
same,growth inhibition,[10]; at 1.2 µM,inactive: -1%
same,growth inhibition,[10]; at 3.7 µM,inactive: -1%
same,growth inhibition,[10]; at 11.0 µM,inactive: 15%
same,growth inhibition,[10]; at 33.0 µM,inactive: -12%
same,growth inhibition,[10]; at 100.0 µM,inactive: 7%
same,growth inhibition,[1]; at 1.2 µM,inactive: 10%
same,growth inhibition,[1]; at 3.7 µM,inactive: 30%
same,growth inhibition,[1]; [17],inactive: 36%
same,growth inhibition,[1]; at 11.0 µM,inactive: 60%
same,growth inhibition,[1]; at 33.0 µM,active: 88%
same,growth inhibition,[1]; [18],active: 95%
same,growth inhibition,[1]; at 50.0 µM,active: 72.8%
same,growth inhibition,[1]; at 100.0 µM,active: 92%
same,growth inhibition,[2]; at 1.2 µM,inactive: 4%
same,growth inhibition,[2]; at 3.7 µM,inactive: 11%
same,growth inhibition,[2]; [17],inactive: 7%
same,growth inhibition,[2]; at 11.0 µM,inactive: 20%
same,growth inhibition,[2]; at 33.0 µM,inactive: 41%
same,growth inhibition,[2]; [18],active: 74%
same,growth inhibition,[2]; at 50.0 µM,active: 74.3%
same,growth inhibition,[2]; at 100.0 µM,inactive: 54%
same,growth inhibition,[11]; at 1.2 µM,inactive: 8%
same,growth inhibition,[11]; at 3.7 µM,inactive: 17%
same,growth inhibition,[11]; at 11.0 µM,inactive: 39%
same,growth inhibition,[11]; at 33.0 µM,active: 83%
same,growth inhibition,[11]; at 100.0 µM,active: 83%
same,growth inhibition,[3]; [17],inactive: 31%
same,growth inhibition,[3]; [18],active: 73%
same,growth inhibition,[3]; at 50.0 µM,inactive: 59.5%
same,growth inhibition,[12]; at 1.2 µM,inactive: -1%
same,growth inhibition,[12]; at 3.7 µM,inactive: -2%
same,growth inhibition,[12]; at 11.0 µM,inactive: -2%
same,growth inhibition,[12]; at 33.0 µM,inactive: 3%
same,growth inhibition,[12]; at 100.0 µM,inactive: 13%
same,growth inhibition,[4]; [17],inactive: 6%
same,growth inhibition,[4]; [18],active: 82%
same,growth inhibition,[4]; at 50.0 µM,active: 73.8%
same,growth inhibition,[5]; at 1.2 µM,inactive: -1%
same,growth inhibition,[5]; at 3.7 µM,inactive: -2%
same,growth inhibition,[5]; [17],inactive: -25%
same,growth inhibition,[5]; at 11.0 µM,inactive: 5%
same,growth inhibition,[5]; at 33.0 µM,inactive: 3%
same,growth inhibition,[5]; [18],inactive: 8%
same,growth inhibition,[5]; at 50.0 µM,inactive: 18.1%
same,growth inhibition,[5]; at 100.0 µM,inactive: 5%
same,growth inhibition,[13]; at 1.2 µM,inactive: 2%
same,growth inhibition,[13]; at 3.7 µM,inactive: 4%
same,growth inhibition,[13]; at 11.0 µM,inactive: 8%
same,growth inhibition,[13]; at 33.0 µM,inactive: 14%
same,growth inhibition,[13]; at 100.0 µM,inactive: 15%
same,growth inhibition,[14]; at 1.2 µM,inactive: 2%
same,growth inhibition,[14]; at 3.7 µM,inactive: 5%
same,growth inhibition,[14]; at 11.0 µM,inactive: 18%
same,growth inhibition,[14]; at 33.0 µM,inactive: 19%
same,growth inhibition,[14]; at 100.0 µM,inactive: 22%
same,growth inhibition,[15]; at 1.2 µM,inactive: 10%
same,growth inhibition,[15]; at 3.7 µM,inactive: 23%
same,growth inhibition,[15]; at 11.0 µM,inactive: 45%
same,growth inhibition,[15]; at 33.0 µM,inactive: 59%
same,growth inhibition,[15]; at 100.0 µM,inactive: 59%
same,growth inhibition,[6]; [17],inactive: 23%
same,growth inhibition,[6]; [18],active: 95%
same,growth inhibition,[6]; at 50.0 µM,inactive: 65.7%
same,growth inhibition,[16]; at 1.2 µM,inactive: 36%
same,growth inhibition,[16]; at 3.7 µM,active: 78%
same,growth inhibition,[16]; at 11.0 µM,active: 93%
same,growth inhibition,[16]; at 33.0 µM,active: 94%
same,growth inhibition,[16]; at 100.0 µM,active: 95%
